Laboratory results as given in patent US20080003627A1, “SYSTEM FOR BIOSYNTHESIS OF FIREFLY LU[…] WITH NATURAL L-CYSTEINE OR DERIVATIVES THEREOF AND LU[…] SOLUTIONS CONTAINING THE SYSTEM” (NATIONAL INSTITUTE OF ADVANCED INDUSTRIAL SCIENCE AND …, priority 2004, published 2008).

Amino acid sequences for entries named in this document (tags omitted).
UniProt P08659, whole entry: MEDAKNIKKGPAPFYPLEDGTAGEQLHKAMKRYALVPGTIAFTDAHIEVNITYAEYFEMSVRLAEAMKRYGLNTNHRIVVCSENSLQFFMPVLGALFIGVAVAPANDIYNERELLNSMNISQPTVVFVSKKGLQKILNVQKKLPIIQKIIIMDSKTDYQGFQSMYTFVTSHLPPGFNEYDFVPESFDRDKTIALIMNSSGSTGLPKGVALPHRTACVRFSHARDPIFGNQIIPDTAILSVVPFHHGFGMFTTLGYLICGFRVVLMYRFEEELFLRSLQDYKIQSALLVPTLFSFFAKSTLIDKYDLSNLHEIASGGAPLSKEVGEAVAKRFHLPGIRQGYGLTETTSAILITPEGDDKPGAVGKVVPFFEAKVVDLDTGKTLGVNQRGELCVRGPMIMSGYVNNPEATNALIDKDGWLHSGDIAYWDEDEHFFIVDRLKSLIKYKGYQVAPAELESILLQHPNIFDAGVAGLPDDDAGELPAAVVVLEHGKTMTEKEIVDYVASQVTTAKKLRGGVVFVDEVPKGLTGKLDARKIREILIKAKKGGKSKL

Biological target: firefly luciferase (Photinus pyralis, UniProt P08659)
Test: firefly luminescence reaction (luminescence activity as substrate)
Format: biochemical
Conditions: ATP, Mg ion, luminometer

Row | luminescence activity (produces luminescence with luciferase) | Compound
1 | produces the luminescence | O=C(O)[C@H]1CSC(c2nc3ccc(O)cc3s2)=N1 [firefly D-luciferin, reference compound]
2 | no luminescence activity | O=C(O)[C@@H]1CSC(c2nc3ccc(O)cc3s2)=N1 [firefly L-luciferin]
